Values of other authors, collected in patent US20250195486A1 (Closed Loop Medicine Ltd., priority 2023, published 2025).
Where two headings read alike, the source gives them in different places.

effect of P-gp inhibitors (phase II studies): 120%
effect of P-gp inhibitors (phase III studies): 16%
SMILES: CN1CCc2nc(C(=O)N[C@@H]3C[C@@H](C(=O)N(C)C)CC[C@@H]3NC(=O)C(=O)Nc3ccc(Cl)cn3)sc2C1 [edoxaban]
